From patent US20240402608A1, “METHOD FOR NON-INVASIVE PRODUCTION OF DEFINED STRUCTURES INSIDE COMPARTMENTS AND COMPARTMENT” (MAX-PLANCK-GESELLSCHAFT ZUR FÖRDERUNG DER WISSENSCHAFTEN …, priority 2021, published 2024) come the findings set out here.

For this data set the following is noted: not told.

As to “poly(ethylene glycol) diacrylate 575 [PEGDA]”, the membrane permeability came out at 3.875 ± 1.330 nm/s.
